The target of this assay is T1, murine MAdCAM-1 (MAdCAM-1/mCk fusion protein); α4β7-bearing HUT 78 cells (Homo sapiens, UniProt P13612+P26010).
T1 construct: host or cells: HUT 78 cells (endogenous α4β7); The MAdCAM-1/mCk partner was made in house in baculovirus-infected Sf9 insect cells, used as neat supernatant and captured by rat anti-mCk antibody
In words: Adhesion of HUT 78 cells to MAdCAM-1/mCk fusion protein bound via capture antibody. The assay is classed as cell-based. Conditions: for IC50: HUT 78 cell adhesion to MAdCAM-1/mCk, average of two determinations; for inhibition at 500 µM: HuT78, 500 μM compound. As for the experimental part: The compounds of the present invention were evaluated for their biological properties.
A soluble fusion protein comprising murine MAdCAM-1 was produced in a baculovirus expression system and used in the adhesion assay. A fusion gene in which sequences encoding the signal peptide and extracellular domain of murine MAdCAM-1 were fused to sequences encoding a constant region of the murine kappa light chain (mCk) was constructed, and cloned into a baculovirus shuttle vector. Fusion protein produced from the resulting construct contained the integrin binding sequences of murine MAdCAM-1 at the amino-terminus, and the mCk sequence at the carboxy-terminus. Recombinant baculovirus encoding the fusion protein was harvested from infected Sf9 insect cells.
Human T-cell lymphoma cells (HUT 78 cells) activated with Mn^+2 were used for the adhesion assay in a 96-well format. HUT 78 cells were labelled by preincubation with ECECF-AM stain (Molecular Probes). Assays were conducted in a final volume of 200 μl. The adhesion of HUT 78 cells to MAdCAM-1/mCk fusion protein bound to wells via rat anti-mCk capture antibody was assessed in the presence or absence of each compound. […] Percent inhibition and IC50 values were determined.
HUT 78 cells (a human T cell lymphoma line; American Type Culture Collection, Accession No. ATCC TIB 161) were maintained in culture for up to one month in RPMI 1640 supplemented with 10% FCS, 20 mM HEPES, and Pen-Strep (1:100). Just prior to use in adhesion assays, cells were labeled with BCECF-AM as follows: 1×10^7 cells were pelleted at 1000 rpm for 10 minutes and resuspended in 25 mL cold PBS (Phosphate Buffered Saline). The cells were pelleted again, resuspended in cold PBS, and pelleted again. The cell pellet was resuspended in 25 ml PBS and labeled with 50 μl BCECF-AM (1 μg/μL in DMSO) for 30 minutes at 37° C. (BCECF-AM; 2′,7′-bis-(2-carboxyethyl)-5-(and-6)-carboxyflourescein, acetoxymethyl ester). The labeled cells were pelleted at 700 rpm for 10 minutes, resuspended in 25 ml cold Assay Buffer and pelleted.
The assay was performed in a 96-well format. Plates were coated overnight at 4° C. with 53 μl/well of a 5 μg/mL solution of rat anti-mCk in carbonate buffer. The plates were blocked for 1 hour at 37° C. with 100 μL/well of 1% BSA in PBS. The BSA/PBS solution was removed, and 50 μL of MAdCAM-mCk supernatant was added neat to each well. The assay was conducted under conditions in which capture antibody was the limiting reagent.
Cell adhesion was measured in the presence or absence of compounds. The compounds were resuspended in 100% DMSO, subsequently diluted 1:10 in water, and finally diluted again 1:10 in the assay: 50 μL of 2X Assay Bufler, 30 μL water, 20 μL of compound were added to each well. […] Cell adhesion occurred in 30 minutes at ambient temperature, after which plates were washed with 50 mM Tris/2 mM MnCl2, pH 7.2 using an EL 404 Microplate Autowasher (BIO-TEK Instruments) using the following wash parameters: wash volume=500 μL; two wash cycles; wash depth=80; aspirating after each wash.
Additional determinations were conducted as needed, so that each IC50 was determined over a range which encompassed the IC50.

Amino acid sequences for entries named in this document (tags omitted). Residues count along the entry.
UniProt P13612, 34-1032: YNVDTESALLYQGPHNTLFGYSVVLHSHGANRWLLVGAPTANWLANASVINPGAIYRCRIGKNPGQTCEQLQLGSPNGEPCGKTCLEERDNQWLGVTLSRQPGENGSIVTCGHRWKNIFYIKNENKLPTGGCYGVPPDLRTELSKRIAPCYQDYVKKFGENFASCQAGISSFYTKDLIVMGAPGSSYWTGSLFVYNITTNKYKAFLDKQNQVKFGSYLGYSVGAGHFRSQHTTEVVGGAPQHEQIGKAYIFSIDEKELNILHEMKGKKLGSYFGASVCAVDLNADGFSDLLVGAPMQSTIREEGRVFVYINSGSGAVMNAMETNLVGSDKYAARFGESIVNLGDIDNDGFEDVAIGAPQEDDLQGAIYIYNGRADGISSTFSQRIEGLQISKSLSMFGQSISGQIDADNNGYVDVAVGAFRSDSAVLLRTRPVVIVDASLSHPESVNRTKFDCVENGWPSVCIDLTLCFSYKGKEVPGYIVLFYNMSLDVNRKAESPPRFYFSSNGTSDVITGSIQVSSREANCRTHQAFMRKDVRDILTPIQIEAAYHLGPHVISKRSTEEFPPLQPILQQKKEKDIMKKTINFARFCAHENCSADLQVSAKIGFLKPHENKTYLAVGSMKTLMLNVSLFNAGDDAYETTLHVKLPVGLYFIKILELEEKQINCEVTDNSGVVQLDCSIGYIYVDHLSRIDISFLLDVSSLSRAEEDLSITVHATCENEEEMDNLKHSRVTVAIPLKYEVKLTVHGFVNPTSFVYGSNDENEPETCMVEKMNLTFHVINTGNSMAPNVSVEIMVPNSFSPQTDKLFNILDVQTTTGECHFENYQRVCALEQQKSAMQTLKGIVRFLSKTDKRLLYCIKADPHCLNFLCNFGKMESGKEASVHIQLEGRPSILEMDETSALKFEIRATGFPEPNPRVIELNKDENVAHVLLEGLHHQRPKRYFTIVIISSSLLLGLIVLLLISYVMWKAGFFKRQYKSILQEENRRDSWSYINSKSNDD
UniProt P26010, 20-798: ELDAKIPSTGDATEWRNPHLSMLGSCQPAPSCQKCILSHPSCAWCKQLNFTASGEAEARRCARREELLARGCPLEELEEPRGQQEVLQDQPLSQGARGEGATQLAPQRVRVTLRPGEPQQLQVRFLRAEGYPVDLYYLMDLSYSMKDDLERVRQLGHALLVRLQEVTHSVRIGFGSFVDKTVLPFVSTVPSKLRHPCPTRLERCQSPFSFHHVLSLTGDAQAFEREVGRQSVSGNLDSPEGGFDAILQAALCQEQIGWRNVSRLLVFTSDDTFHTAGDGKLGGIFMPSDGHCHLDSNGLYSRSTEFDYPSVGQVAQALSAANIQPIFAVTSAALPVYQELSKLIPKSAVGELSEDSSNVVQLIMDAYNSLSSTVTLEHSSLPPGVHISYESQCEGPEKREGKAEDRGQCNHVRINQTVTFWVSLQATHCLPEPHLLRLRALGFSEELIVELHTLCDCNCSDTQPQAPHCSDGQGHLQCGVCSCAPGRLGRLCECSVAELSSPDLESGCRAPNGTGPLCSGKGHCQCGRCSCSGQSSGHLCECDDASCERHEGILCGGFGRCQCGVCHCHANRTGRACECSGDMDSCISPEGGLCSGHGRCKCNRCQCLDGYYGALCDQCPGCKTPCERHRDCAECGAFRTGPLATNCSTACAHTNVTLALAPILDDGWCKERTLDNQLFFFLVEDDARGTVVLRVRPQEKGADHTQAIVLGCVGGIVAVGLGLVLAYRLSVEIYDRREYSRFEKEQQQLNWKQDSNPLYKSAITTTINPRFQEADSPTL

The values below come from US20020103111A1, “Inhibitors of MAdCAM-1-mediated interactions and methods of use therefor” (Millennium Pharmaceuticals, Inc., priority 1996, published 2002).

In turn, `CC(=O)N[C@@H](CC(C)C)C(=O)N[C@@H](CC(=O)O)C(=O)N[C@H](C(=O)N[C@@H](CO)C(=O)N[C@@H](CC(C)C)C(N)=O)C(C)C` [Example 47, Ac-Leu-Asp-Val-Ser-Leu] displayed a concentration for half-maximal inhibition (IC50) of 71 µM.
Molecule `CC(=O)N[C@@H](CC(C)C)C(=O)N[C@@H](Cc1ccccc1)C(=O)N[C@H](C(=O)N[C@@H](CO)C(=O)N[C@@H](CC(C)C)C(N)=O)[C@@H](C)O` [Example 40, Ac-Leu-Phe-Thr-Ser-Leu] had an IC50 of 300 µM. Further, for the setting “HUT 78 cells, Mn2+ activated”, testing at 500 µM gave an inhibition of 29%.
Regarding `CC(=O)N[C@@H](CC(C)C)C(=O)N[C@@H](CC(=O)O)C(=O)N[C@@H](C)C(=O)N[C@@H](CO)C(=O)N[C@@H](CC(C)C)C(N)=O` [Example 2, Ac-Leu-Asp-Ala-Ser-Leu], the inhibition at 500 µM (HUT 78 cells, Mn2+ activated) stood at 47%.
Turning to `CC(=O)N[C@@H](CC(C)C)C(=O)N[C@@H](CC(=O)O)C(=O)N[C@@H](CO)C(=O)N[C@@H](CO)C(=O)N[C@@H](CC(C)C)C(N)=O` [Example 43, Ac-Leu-Asp-Ser-Ser-Leu], the half-inhibitory concentration (IC50) stood at 611 µM. In addition, for the setting “HUT 78 cells, Mn2+ activated”, the inhibition at 500 µM stood at 38%.
As to `CC(=O)N[C@@H](CC(C)C)C(=O)N[C@@H](CC(=O)O)C(=O)N[C@H](C(=O)N[C@H](C(=O)N[C@@H](CC(C)C)C(N)=O)[C@@H](C)O)[C@@H](C)O` [Example 44, Ac-Leu-Asp-Thr-Thr-Leu], the IC50 came out at 101 µM. The molecule further had an inhibition at 500 µM (HUT 78 cells, Mn2+ activated) of 98%.
The matching figures for `CC(=O)NCC(=O)N[C@@H](CC(C)C)C(=O)N[C@@H](CC(=O)O)C(=O)N[C@H](C(=O)N[C@@H](CO)C(N)=O)[C@@H](C)O` [Example 13, Ac-Gly-Leu-Asp-Thr-Ser]: 745 µM and 43%.
Turning to `CC(=O)N[C@@H](CC(C)C)C(=O)N[C@@H](CCC(=O)O)C(=O)N[C@H](C(=O)N[C@@H](CO)C(=O)N[C@@H](CC(C)C)C(N)=O)[C@@H](C)O` [Example 41, Ac-Leu-Glu-Thr-Ser-Leu], the IC50 is 60.7 µM. Also, for the setting “HUT 78 cells, Mn2+ activated”, testing at 500 µM gave an inhibition of 98%.
The like results for `CC(=O)N[C@@H](CCCNC(=N)N)C(=O)NCC(=O)N[C@@H](CC(C)C)C(=O)N[C@@H](CC(=O)O)C(=O)N[C@H](C(N)=O)[C@@H](C)O` [Example 16, Ac-Arg-Gly-Leu-Asp-Thr] were, in that order, 542 µM and 48%.
For the molecule `CC(=O)N[C@@H](CC(C)C)C(=O)N[C@@H](CC(=O)O)C(=O)N[C@H](C(=O)N[C@@H](CO)C(=O)N[C@@H](CC(C)C)C(N)=O)[C@@H](C)O` [Example 10, Ac-Leu-Asp-Thr-Ser-Leu], the “% Adhesion Inhibition 500 μM” value (500 μM compound, HUT 78 cells, Mn2+ activated, 500 µM) is on record as 50%.
On to `CC(=O)N[C@@H](CC(C)C)C(=O)N[C@@H](CC(=O)O)C(=O)N[C@H](C(=O)N[C@@H](CO)C(=O)N[C@@H](Cc1ccccc1)C(N)=O)[C@@H](C)O` [Example 45, Ac-Leu-Asp-Thr-Ser-Phe], for which the IC50 worked out at 144 µM. The molecule also registered an inhibition at 500 µM (HUT 78 cells, Mn2+ activated) of 86%.

Broadly, the IC50 is the concentration at which inhibition is half-maximal. Usually inhibition stands for the percentage by which the read-out fell short of the control.
